In patent US20250034110A1, “LPAR1 ANTAGONISTS AND USES THEREOF” (Pipeline Therapeutics, Inc., priority 2021, published 2025) one finds IC50 data, which are given here for 12 compounds.

By UniProt entry, the sequences of proteins in these tests, tags left out.
UniProt Q92633, whole entry: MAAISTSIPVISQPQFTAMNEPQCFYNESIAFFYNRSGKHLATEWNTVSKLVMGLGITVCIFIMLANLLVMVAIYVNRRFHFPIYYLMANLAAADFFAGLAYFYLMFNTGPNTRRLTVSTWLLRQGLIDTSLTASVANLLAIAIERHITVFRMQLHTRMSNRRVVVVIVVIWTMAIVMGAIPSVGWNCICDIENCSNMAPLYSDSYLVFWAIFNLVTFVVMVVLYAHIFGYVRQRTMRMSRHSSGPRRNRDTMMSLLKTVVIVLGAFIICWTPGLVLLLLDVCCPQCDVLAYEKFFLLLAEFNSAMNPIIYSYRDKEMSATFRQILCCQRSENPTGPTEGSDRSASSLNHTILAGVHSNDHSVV

Only a part of the results on these compounds is given; other tests are left out.

The target of the test is human LPAR1 (Homo sapiens, UniProt Q92633). The test can be described thus: In vitro functional assay of lysophosphatidic acid receptor 1 activity (calcium flux). It counts as cell-based. As to conditions: read-out: LPAR1 IC50; B103 cells stably expressing human LPAR1; calcium flux (Fluo-4 NW) after lysophosphatidic acid (18:1) at EC80; 100 pM to 10 μM. In general terms: A change in cytosolic calcium serves as a functional read-out for many receptors and channels.
The term IC50 denotes the midpoint of a concentration-inhibition curve. For the compound `Cc1ccc(NC(=O)N(c2ccccc2C(C)C)C2CCN(C3COC3)CC2)c(OCC(F)F)n1`, the IC50 was in the range of 0.1 to 1 µM. For the compound `Cc1cc(OC(F)F)c(NC(=O)N(c2ccccc2C(C)C)C2CCN(C3COC3)CC2)cn1`, the IC50 is 0.01 to 0.1 µM. Take `COc1ccc(NC(=O)N(c2ccccc2C(C)C)C2CCN(CC(F)F)CC2)c(OC(F)F)n1`: the IC50 is 0.01 to 0.1 µM. With `COc1ccc(NC(=O)N(c2ccccc2C(C)C)C2CCN(CCF)CC2)c(OC(F)F)n1`, the IC50 lay in the range of 0.1 to 1 µM. Turning to `COc1ccc(NC(=O)N(c2ccccc2C(C)C)C2CCN(CC(F)(F)F)CC2)c(OC(F)F)n1`, the IC50 is 0.01 to 0.1 µM. Next, `COc1ccc(NC(=O)N(c2ccccc2C(C)C)C2CCN(C3COC3)CC2)c(OCC(F)F)n1`: 0.1 to 1 µM; `COc1ccc(NC(=O)N(c2ccccc2C(C)C)C2CCN(C3COC3)CC2)c(OCCF)n1`: 0.1 to 1 µM. Next, `COc1cc(Cl)ncc1NC(=O)N(c1ccccc1C(C)C)C1CCN(C2CCC2)CC1`: 0.1 to 1 µM. For the compound `COc1cc(Cl)ncc1NC(=O)N(c1ccccc1C(C)C)C1CCN(C2COC2)CC1`, the IC50 was in the range of 0.01 to 0.1 µM. For `CC(C)c1ccccc1N(C(=O)Nc1cc(F)c(F)cc1OC(F)F)C1CCN(C2COC2)CC1` the value was 0.01 to 0.1 µM; for `Cc1cc(OC(F)F)c(NC(=O)N(c2ccccc2C(C)C)C2CCN(C3(C)COC3)CC2)cn1`, 0.01 to 0.1 µM. With `CC(C)c1ccccc1N(C(=O)Nc1cc(F)c(Cl)cc1OCC(F)F)C1CCN(C2COC2)CC1`, the IC50 lay in the range of 0.1 to 1 µM.
